# CycPeptMPDB entries from one study

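The data file gives no further conditions (lipid, pH, time, direction or concentration), and values from different papers need not be comparable. Other peptides of the study may be missing here. Entries at the database's floor value (log10 P of -10) are not listed.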

PAMPA measures passive passage through an artificial lipid membrane. P is given in units of 10^-6 cm/s (from log10 values with two decimals); larger means faster passage.

CC(=O)N[C@@H]1C(=O)N2CCC[C@H]2C(=O)N(C)[C@H](CC(C)C)C(=O)N[C@H](CC(C)C)C(=O)N[C@H](CC(C)C)C(=O)N[C@H](CC(C)C)C(=O)N(C)[C@@H](C)C(=O)N[C@@H](CC(C)C)C(=O)N2CCC[C@@H]2C(=O)O[C@@H]1C has PAMPA 0.35 × 10^-6 cm/s. CC(=O)N1CCC[C@H]1C(=O)N[C@@H]1C(=O)N[C@H](CC(C)C)C(=O)N[C@@H](CC(C)C)C(=O)N(C)[C@H](CC(C)C)C(=O)N[C@@H](CC(C)C)C(=O)N(C)[C@@H](C)C(=O)N[C@@H](CC(C)C)C(=O)N2CCC[C@@H]2C(=O)O[C@@H]1C is reported with PAMPA 4.2 × 10^-6 cm/s. The entry for CC(=O)N1CCC[C@@H]1C(=O)N(C)[C@H](CC(C)C)C(=O)N[C@@H]1C(=O)N[C@H](CC(C)C)C(=O)N[C@@H](CC(C)C)C(=O)N[C@H](CC(C)C)C(=O)N[C@@H](C)C(=O)N[C@H](CC(C)C)C(=O)N2CCC[C@H]2C(=O)O[C@@H]1C lists PAMPA 0.072 × 10^-6 cm/s. CC(=O)N[C@@H]1C(=O)N2CCC[C@H]2C(=O)N(C)[C@H](CC(C)C)C(=O)N[C@H](CC(C)C)C(=O)N[C@@H](CC(C)C)C(=O)N(C)[C@H](CC(C)C)C(=O)N(C)[C@H](C)C(=O)N[C@@H](CC(C)C)C(=O)N2CCC[C@@H]2C(=O)O[C@@H]1C is reported with PAMPA 2 × 10^-6 cm/s.

CC(=O)N1CCC[C@@H]1C(=O)N(C)[C@@H](CC(C)C)C(=O)N[C@@H]1C(=O)N[C@@H](CC(C)C)C(=O)N[C@H](CC(C)C)C(=O)N(C)[C@@H](CC(C)C)C(=O)N(C)[C@@H](C)C(=O)N[C@@H](CC(C)C)C(=O)N2CCC[C@H]2C(=O)O[C@@H]1C has PAMPA 1.1 × 10^-6 cm/s. The entry for CC(=O)N1CCC[C@H]1C(=O)N(C)[C@@H](CC(C)C)C(=O)N[C@@H]1C(=O)N(C)[C@H](CC(C)C)C(=O)N(C)[C@H](CC(C)C)C(=O)N(C)[C@@H](CC(C)C)C(=O)N(C)[C@@H](C)C(=O)N[C@@H](CC(C)C)C(=O)N2CCC[C@H]2C(=O)O[C@@H]1C lists PAMPA 6.5 × 10^-6 cm/s. For CC(=O)N1CCC[C@H]1C(=O)N[C@@H]1C(=O)N[C@H](CC(C)C)C(=O)N(C)[C@H](CC(C)C)C(=O)N[C@@H](CC(C)C)C(=O)N(C)[C@@H](CC(C)C)C(=O)N(C)[C@H](C)C(=O)N[C@@H](CC(C)C)C(=O)N2CCC[C@@H]2C(=O)O[C@@H]1C the data give PAMPA 11 × 10^-6 cm/s. For CC(=O)N1CCC[C@@H]1C(=O)N(C)[C@@H](CC(C)C)C(=O)N[C@@H]1C(=O)N[C@H](CC(C)C)C(=O)N[C@H](CC(C)C)C(=O)N(C)[C@H](CC(C)C)C(=O)N[C@@H](C)C(=O)N[C@@H](CC(C)C)C(=O)N2CCC[C@H]2C(=O)O[C@@H]1C the data give PAMPA 1.2 × 10^-6 cm/s.

CC(=O)N1CCC[C@@H]1C(=O)N(C)[C@H](CC(C)C)C(=O)N[C@@H]1C(=O)N[C@@H](CC(C)C)C(=O)N(C)[C@@H](CC(C)C)C(=O)N[C@@H](CC(C)C)C(=O)N(C)[C@@H](C)C(=O)N[C@H](CC(C)C)C(=O)N2CCC[C@H]2C(=O)O[C@@H]1C is reported with PAMPA 0.48 × 10^-6 cm/s. For CC(=O)N1CCC[C@@H]1C(=O)N(C)[C@H](CC(C)C)C(=O)N[C@@H]1C(=O)N(C)[C@@H](CC(C)C)C(=O)N(C)[C@H](CC(C)C)C(=O)N[C@@H](CC(C)C)C(=O)N(C)[C@@H](C)C(=O)N[C@H](CC(C)C)C(=O)N2CCC[C@@H]2C(=O)O[C@@H]1C the data give PAMPA 8.7 × 10^-6 cm/s.

2 of these entries, quoted again:

| structure (SMILES) | PAMPA (10^-6 cm/s) |
|---|---|
| CC(=O)N1CCC[C@@H]1C(=O)N(C)[C@H](CC(C)C)C(=O)N[C@@H]1C(=O)N[C@H](CC(C)C)C(=O)N[C@@H](CC(C)C)C(=O)N[C@H](CC(C)C)C(=O)N[C@@H](C)C(=O)N[C@H](CC(C)C)C(=O)N2CCC[C@H]2C(=O)O[C@@H]1C | 0.072 |
| CC(=O)N[C@@H]1C(=O)N2CCC[C@H]2C(=O)N(C)[C@H](CC(C)C)C(=O)N[C@H](CC(C)C)C(=O)N[C@H](CC(C)C)C(=O)N[C@H](CC(C)C)C(=O)N(C)[C@@H](C)C(=O)N[C@@H](CC(C)C)C(=O)N2CCC[C@@H]2C(=O)O[C@@H]1C | 0.35 |

Source: CycPeptMPDB (Li et al. 2023), which took these values from Kelly et al. 2021, doi:10.1021/jacs.0c06115.